Experimental data: patent US20030022283A1

Target: T1, Rat NPY Y2 receptor (clone) (rat), Q9ERC0
T1 chain: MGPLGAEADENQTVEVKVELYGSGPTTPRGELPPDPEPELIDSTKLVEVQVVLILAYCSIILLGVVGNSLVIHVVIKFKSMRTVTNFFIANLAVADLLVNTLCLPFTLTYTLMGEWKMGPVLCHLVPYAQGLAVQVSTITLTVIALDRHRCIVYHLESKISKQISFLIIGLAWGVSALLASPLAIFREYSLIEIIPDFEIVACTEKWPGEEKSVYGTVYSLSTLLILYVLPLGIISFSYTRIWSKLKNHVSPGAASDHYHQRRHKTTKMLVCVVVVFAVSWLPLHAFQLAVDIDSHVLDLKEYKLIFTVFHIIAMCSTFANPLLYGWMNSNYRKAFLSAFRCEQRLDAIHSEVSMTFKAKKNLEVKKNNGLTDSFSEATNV
Experiment: competition with [125I]PYY, rat Y2 clone
Conditions: remark: other sources report otherwise

B1: rat/human (26-36)NPY, P01303 54-64 (peptide, UniProt P01303 54-64, looked up)
peptide: HYINLITRQRY
For B1, the IC50 was 84 nM.
